Laboratory results taken from PubChem BioAssay (NCI).
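Assay format: 96-well plates, 48-hour exposure. At the GI50, growth is halved. TGI denotes the concentration required for complete inhibition of growth.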

Key:
Assay in all cases: DTP human tumour cell line panel, 48 h
TK-10 renal = tested on: TK-10 renal
NCI-H226 lung = tested on: NCI-H226 lung
DU-145 prostate = tested on: DU-145 prostate
HT29 colon = tested on: HT29 colon
SK-MEL-2 melanoma = tested on: SK-MEL-2 melanoma
A549 NSCLC = tested on: A549 NSCLC
SN12C renal = tested on: SN12C renal
COLO 205 colon = tested on: COLO 205 colon
MALME-3M melanoma = tested on: MALME-3M melanoma
SK-MEL-5 melanoma = tested on: SK-MEL-5 melanoma
UACC-62 melanoma = tested on: UACC-62 melanoma
RXF 393 renal = tested on: RXF 393 renal
OVCAR-3 ovarian = tested on: OVCAR-3 ovarian
SF-268 CNS = tested on: SF-268 CNS
HS 578T breast = tested on: HS 578T breast
RPMI-8226 leukemia = tested on: RPMI-8226 leukemia
OVCAR-4 ovarian = tested on: OVCAR-4 ovarian
786-0 renal = tested on: 786-0 renal
PC-3 prostate = tested on: PC-3 prostate
OVCAR-5 ovarian = tested on: OVCAR-5 ovarian
SNB-75 CNS = tested on: SNB-75 CNS
EKVX NSCLC = tested on: EKVX NSCLC
HOP-62 NSCLC = tested on: HOP-62 NSCLC
T-47D breast = tested on: T-47D breast
SNB-19 CNS = tested on: SNB-19 CNS
U251 CNS = tested on: U251 CNS
KM12 colon = tested on: KM12 colon
MDA-MB-435 = tested on: MDA-MB-435
HCT-116 colon = tested on: HCT-116 colon
BT-549 breast = tested on: BT-549 breast
ACHN renal = tested on: ACHN renal
HCT-15 colon = tested on: HCT-15 colon
NCI-H23 lung = tested on: NCI-H23 lung
CAKI-1 renal = tested on: CAKI-1 renal
SK-MEL-28 melanoma = tested on: SK-MEL-28 melanoma
MDA-MB-231 breast = tested on: MDA-MB-231 breast
NCI-H322M lung = tested on: NCI-H322M lung
SF-539 CNS = tested on: SF-539 CNS
SW-620 colon = tested on: SW-620 colon
UACC-257 melanoma = tested on: UACC-257 melanoma
LOX IMVI melanoma = tested on: LOX IMVI melanoma
UO-31 renal = tested on: UO-31 renal
NCI/ADR-RES ovarian = tested on: NCI/ADR-RES ovarian
NCI-H460 lung = tested on: NCI-H460 lung
SK-OV-3 ovarian = tested on: SK-OV-3 ovarian
MCF7 breast = tested on: MCF7 breast
SF-295 CNS = tested on: SF-295 CNS
IGROV1 ovarian = tested on: IGROV1 ovarian
M14 melanoma = tested on: M14 melanoma
HOP-92 NSCLC = tested on: HOP-92 NSCLC
NCI-H522 lung = tested on: NCI-H522 lung
MDA-N = tested on: MDA-N
OVCAR-8 ovarian = tested on: OVCAR-8 ovarian
K-562 leukemia = tested on: K-562 leukemia
A498 renal = tested on: A498 renal

SMILES: N1=C(c2nnc(-c3nn[nH]n3)nn2)NNN1
- GI50 (TK-10 renal): > 100 µM
- TGI (TK-10 renal): > 100 µM
- GI50 (NCI-H226 lung): > 100 µM
- TGI (NCI-H226 lung): > 100 µM
- GI50 (DU-145 prostate): > 100 µM
- TGI (DU-145 prostate): > 100 µM
- GI50 (HT29 colon): > 100 µM
- TGI (HT29 colon): > 100 µM
- GI50 (SK-MEL-2 melanoma): > 100 µM
- TGI (SK-MEL-2 melanoma): > 100 µM
- GI50 (A549 NSCLC): > 100 µM
- TGI (A549 NSCLC): > 100 µM
- GI50 (SN12C renal): > 100 µM
- TGI (SN12C renal): > 100 µM
- GI50 (COLO 205 colon): > 100 µM
- TGI (COLO 205 colon): > 100 µM
- GI50 (MALME-3M melanoma): > 100 µM
- TGI (MALME-3M melanoma): > 100 µM
- GI50 (SK-MEL-5 melanoma): > 100 µM
- TGI (SK-MEL-5 melanoma): > 100 µM
- GI50 (UACC-62 melanoma): > 100 µM
- TGI (UACC-62 melanoma): > 100 µM
- GI50 (RXF 393 renal): > 100 µM
- TGI (RXF 393 renal): > 100 µM
- GI50 (OVCAR-3 ovarian): > 100 µM
- TGI (OVCAR-3 ovarian): > 100 µM
- GI50 (SF-268 CNS): > 100 µM
- TGI (SF-268 CNS): > 100 µM
- GI50 (HS 578T breast): > 100 µM
- TGI (HS 578T breast): > 100 µM
- GI50 (RPMI-8226 leukemia): > 100 µM
- TGI (RPMI-8226 leukemia): > 100 µM
- GI50 (OVCAR-4 ovarian): > 100 µM
- TGI (OVCAR-4 ovarian): > 100 µM
- GI50 (786-0 renal): > 100 µM
- TGI (786-0 renal): > 100 µM
- GI50 (PC-3 prostate): > 100 µM
- TGI (PC-3 prostate): > 100 µM
- GI50 (OVCAR-5 ovarian): > 100 µM
- TGI (OVCAR-5 ovarian): > 100 µM
- GI50 (SNB-75 CNS): > 100 µM
- TGI (SNB-75 CNS): > 100 µM
- GI50 (EKVX NSCLC): > 100 µM
- TGI (EKVX NSCLC): > 100 µM
- GI50 (HOP-62 NSCLC): > 100 µM
- TGI (HOP-62 NSCLC): > 100 µM
- GI50 (T-47D breast): > 100 µM
- TGI (T-47D breast): > 100 µM
- GI50 (SNB-19 CNS): > 100 µM
- TGI (SNB-19 CNS): > 100 µM
- GI50 (U251 CNS): > 100 µM
- TGI (U251 CNS): > 100 µM
- GI50 (KM12 colon): > 100 µM
- TGI (KM12 colon): > 100 µM
- GI50 (MDA-MB-435): > 100 µM
- TGI (MDA-MB-435): > 100 µM
- GI50 (HCT-116 colon): > 100 µM
- TGI (HCT-116 colon): > 100 µM
- GI50 (BT-549 breast): > 100 µM
- TGI (BT-549 breast): > 100 µM
- GI50 (ACHN renal): > 100 µM
- TGI (ACHN renal): > 100 µM
- GI50 (HCT-15 colon): > 100 µM
- TGI (HCT-15 colon): > 100 µM
- GI50 (NCI-H23 lung): > 100 µM
- TGI (NCI-H23 lung): > 100 µM
- GI50 (CAKI-1 renal): > 100 µM
- TGI (CAKI-1 renal): > 100 µM
- GI50 (SK-MEL-28 melanoma): > 100 µM
- TGI (SK-MEL-28 melanoma): > 100 µM
- GI50 (MDA-MB-231 breast): > 100 µM
- TGI (MDA-MB-231 breast): > 100 µM
- GI50 (NCI-H322M lung): > 100 µM
- TGI (NCI-H322M lung): > 100 µM
- GI50 (SF-539 CNS): > 100 µM
- TGI (SF-539 CNS): > 100 µM
- GI50 (SW-620 colon): > 100 µM
- TGI (SW-620 colon): > 100 µM
- GI50 (UACC-257 melanoma): > 100 µM
- TGI (UACC-257 melanoma): > 100 µM
- GI50 (LOX IMVI melanoma): 43.6 µM
- TGI (LOX IMVI melanoma): > 100 µM
- GI50 (UO-31 renal): > 100 µM
- TGI (UO-31 renal): > 100 µM
- GI50 (NCI/ADR-RES ovarian): > 100 µM
- TGI (NCI/ADR-RES ovarian): > 100 µM
- GI50 (NCI-H460 lung): > 100 µM
- TGI (NCI-H460 lung): > 100 µM
- GI50 (SK-OV-3 ovarian): > 100 µM
- TGI (SK-OV-3 ovarian): > 100 µM
- GI50 (MCF7 breast): > 100 µM
- TGI (MCF7 breast): > 100 µM
- GI50 (SF-295 CNS): > 100 µM
- TGI (SF-295 CNS): > 100 µM
- GI50 (IGROV1 ovarian): > 100 µM
- TGI (IGROV1 ovarian): > 100 µM
- GI50 (M14 melanoma): > 100 µM
- TGI (M14 melanoma): > 100 µM
- GI50 (HOP-92 NSCLC): > 100 µM
- TGI (HOP-92 NSCLC): > 100 µM
- GI50 (NCI-H522 lung): > 100 µM
- TGI (NCI-H522 lung): > 100 µM
- GI50 (MDA-N): > 100 µM
- TGI (MDA-N): > 100 µM
- GI50 (OVCAR-8 ovarian): > 100 µM
- TGI (OVCAR-8 ovarian): > 100 µM
- GI50 (K-562 leukemia): > 100 µM
- TGI (K-562 leukemia): > 100 µM
- GI50 (A498 renal): > 100 µM
- TGI (A498 renal): > 100 µM
